This is a selection; strong and weak results do not stand in their true shares. The source made the active and inactive calls. No stated cut-off is given here; in the data, active means activation above about 11%; inactive means the rest.
biological target: Sphingosine 1-phosphate receptor 4 (Homo sapiens) (UniProt O95977); assay: S1P4 receptor agonists, primary screen, cell-based (AID 1509); details: S1P4-expressing cell line, agonist reporter assay; at 4.98 µM; active compounds read high;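 further: 0% = DMSO vehicle and 100% = reference agonist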

By UniProt entry, the sequences of proteins in these tests, tags left out.
UniProt O95977, whole entry: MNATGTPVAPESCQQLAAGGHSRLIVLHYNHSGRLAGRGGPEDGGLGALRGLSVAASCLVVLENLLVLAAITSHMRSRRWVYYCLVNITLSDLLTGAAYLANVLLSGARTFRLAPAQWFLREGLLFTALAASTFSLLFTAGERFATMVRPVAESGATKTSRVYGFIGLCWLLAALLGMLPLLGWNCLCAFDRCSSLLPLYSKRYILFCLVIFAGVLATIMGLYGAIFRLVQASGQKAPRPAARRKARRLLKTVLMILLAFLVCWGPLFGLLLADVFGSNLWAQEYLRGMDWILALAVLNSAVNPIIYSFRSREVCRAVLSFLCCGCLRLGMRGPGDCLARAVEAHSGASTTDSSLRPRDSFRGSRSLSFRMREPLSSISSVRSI

Question: Which activation does the source give for c1ccc(CN2CCC(Nc3ccccc3)CC2)cc1 here?
Answer: Its activation is inactive: -1.48%.

Question: For N#Cc1ccc(C(=O)NCC2(N3CCCCC3)CCCCC2)cc1, which activation is on record?
Answer: The activation was inactive: 2.51%.

Question: N/C(=N\O)c1c(N)no[n+]1[O-] was tested. Which activation did it give?
Answer: The activation was inactive: 1.41%.

Question: Which activation does the source give for O=C(OC1CN2CCC1CC2)C1c2ccccc2C=Cc2ccccc21 (centres undefined) here?
Answer: The activation was inactive: -0.83%.

Question: For COc1ccc(C(=O)NCC2(N3CCOCC3)CCCCC2)cc1OC, which activation is on record?
Answer: Its activation is inactive: -0.24%.

Question: Which activation does the source give for CCC(CO)(C(=O)OC1CN2CCC1CC2)c1ccccc1 (centres undefined) here?
Answer: The activation was inactive: -0.37%.

Question: Which activation does the source give for COc1cc(OC)cc(C(=O)NCC2(N3CCOCC3)CCCCC2)c1 here?
Answer: The activation was inactive: -0.97%.

Question: For CCCOc1ccc(C)cc1CN(CCCl)CCCl, which activation is on record?
Answer: Its activation is inactive: -2.78%.

Question: Which activation does the source give for CCOc1ncccc1C(=O)NCC1(N2CCOCC2)CCCCC1 here?
Answer: Its activation is inactive: 0.85%.

Question: Which activation does the source give for CC(C)(C)OC(=O)N1CCC(Nc2ccccc2)CC1 here?
Answer: Its activation is inactive: 0.63%.

Question: How did the activation turn out when CCN1CCC(Nc2cccc(F)c2)CC1 was run?
Answer: The activation was inactive: 0.08%.

Question: Which activation does the source give for CN(C)c1ccc(C(=O)NCC2(N3CCCCC3)CCCCC2)cc1 here?
Answer: Its activation is inactive: 0.66%.

Question: Which activation does the source give for Cc1ccc(OCC(C)C)c(CN(CCCl)CCCl)c1 here?
Answer: The activation was inactive: 0.29%.

Question: CCOc1ccc(C)cc1CN(CCCl)CCCl was tested. Which activation did it give?
Answer: The activation was inactive: 1.34%.

Question: COc1ccc(NC2CCN(CCc3ccccc3)CC2)c(OC)c1 was tested. Which activation did it give?
Answer: Its activation is inactive: -1.65%.

Question: O=C(NCC1(N2CCOCC2)CCCCC1)c1cc2ccccc2o1 was tested. Which activation did it give?
Answer: Its activation is inactive: -0.36%.

Question: With CCOC(=O)N1CCC(Nc2ccc(OC)cc2)CC1 as the molecule, how does the activation read?
Answer: Its activation is inactive: 0%.

Question: For N#CC1(Nc2ccccc2)CCN(Cc2ccccc2)CC1, which activation is on record?
Answer: Its activation is inactive: 1.08%.

Question: For O=C(OC1CN2CCC1CC2)C1c2ccccc2Oc2ccccc21 (centres undefined), which activation is on record?
Answer: The activation was inactive: 2.14%.

Question: With COc1ccc(C(=O)NCC2(N3CCCCC3)CCCCC2)c(OC)c1OC as the molecule, how does the activation read?
Answer: The activation was inactive: 0.32%.

Question: With CN1CCC(Nc2cccc(F)c2)CC1 as the molecule, how does the activation read?
Answer: The activation was inactive: -1.08%.

Question: CN(C)c1cccc(C(=O)NCC2(N3CCCCC3)CCCCC2)c1 was tested. Which activation did it give?
Answer: The activation was inactive: 1.41%.

Question: With COc1ccc(CN(CCCl)CCCl)cc1Cl as the molecule, how does the activation read?
Answer: The activation was inactive: 0.17%.

Question: Which activation does the source give for CC(C)c1ccc(NC2CCN(C(=O)OC(C)(C)C)CC2)cc1 here?
Answer: The activation was inactive: -1.6%.

Question: Which activation does the source give for CN1CCN(CCOC(=O)C(O)(c2ccccc2)c2ccccc2)CC1 here?
Answer: The activation was inactive: -0.58%.

Question: For COc1ccc(NC2CCN(C(=O)OC(C)(C)C)CC2)cc1, which activation is on record?
Answer: Its activation is inactive: -2.29%.

Question: For O=C(NCC1(N2CCOCC2)CCCCC1)c1cc(=O)[nH]c2ccccc12, which activation is on record?
Answer: The activation was inactive: -2.15%.

Question: With O=C(NCC1(N2CCCCC2)CCCCC1)c1cccc([N+](=O)[O-])c1 as the molecule, how does the activation read?
Answer: Its activation is inactive: -0.64%.

Question: N#CC1(Nc2ccccc2)CCN(CCc2ccccc2)CC1 was tested. Which activation did it give?
Answer: Its activation is inactive: -0.11%.
